Laboratory results: patent EP1144402B1, “SUBSTITUTED OXIMES AND HYDRAZONES AS NEUROKININ ANTAGONISTS” (SCHERING CORPORATION, priority 1998, dated 2000)

Chains of the proteins cited; added tags and fusions are not shown.
UniProt P25103, whole entry, species assumed: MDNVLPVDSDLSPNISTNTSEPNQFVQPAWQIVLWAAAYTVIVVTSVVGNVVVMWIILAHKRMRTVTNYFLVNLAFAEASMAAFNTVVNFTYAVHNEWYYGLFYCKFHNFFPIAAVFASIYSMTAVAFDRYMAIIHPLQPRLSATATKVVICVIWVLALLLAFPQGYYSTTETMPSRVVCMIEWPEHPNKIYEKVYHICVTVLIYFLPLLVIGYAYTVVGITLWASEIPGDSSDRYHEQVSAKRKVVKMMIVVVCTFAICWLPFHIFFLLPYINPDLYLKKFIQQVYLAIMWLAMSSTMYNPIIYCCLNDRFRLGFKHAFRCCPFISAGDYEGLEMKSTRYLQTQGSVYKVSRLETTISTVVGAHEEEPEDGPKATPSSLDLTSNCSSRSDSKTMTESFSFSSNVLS
UniProt P29371, whole entry: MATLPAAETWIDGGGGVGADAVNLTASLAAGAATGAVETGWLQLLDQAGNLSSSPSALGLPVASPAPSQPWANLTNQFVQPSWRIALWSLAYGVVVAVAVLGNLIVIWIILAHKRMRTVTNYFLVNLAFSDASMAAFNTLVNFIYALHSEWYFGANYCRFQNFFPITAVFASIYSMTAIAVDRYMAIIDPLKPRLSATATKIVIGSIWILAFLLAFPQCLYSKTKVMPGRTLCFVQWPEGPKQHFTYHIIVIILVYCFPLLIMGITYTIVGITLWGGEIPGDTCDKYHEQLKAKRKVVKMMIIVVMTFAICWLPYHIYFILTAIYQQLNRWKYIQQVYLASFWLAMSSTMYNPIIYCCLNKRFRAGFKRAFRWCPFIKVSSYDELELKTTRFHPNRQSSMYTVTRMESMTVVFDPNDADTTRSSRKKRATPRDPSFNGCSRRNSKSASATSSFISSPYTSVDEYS

How the values were obtained:
NK1 receptor = NK1 receptor (Homo sapiens, UniProt P25103); assay: neurokinin receptor binding assay (NK1)
From the text: (§1) The in vitro and in vivo activity of the compounds of formula I can be determined by various procedures known in the art, such as a test for their ability to inhibit the activity of the NK1 agonist Substance P, an isolated hamster trachea NK2 assay, a test of the effect of NK1 antagonists on Substance P-induced airway microvascular leakage, measurement of NK2 activity in vivo in guinea pigs, measurement of bronchoconstriction due to NKA, and neurokinin receptor binding assay(s). NK3 activity is determined by following a procedure similar to that described in the literature, e.g., Molecular Pharmacol., 48 (1995), p. 711-716. Typical procedures for determining NK1 and NK2 activity are described in U.S. 5,696,267, incorporated herein by reference.
% Inhibition of neurokinin agonist activity is the difference between the percent of maximum specific binding (MSB) and 100%. The percent of MSB is defined by the following equation, wherein "dpm" is disintegrations per minute: % MSB =((dpm of unknown) - (dpm of nonspecific binding))/((dpm of total binding) - (dpm of nonspecific binding))X 100 [formula]
(§2) Using the test procedures known in the art, the following data (% inhibition or Ki) were obtained for preferred and/or representative compounds of formula I: […]

NK3 receptor = NK3 receptor (Homo sapiens, UniProt P29371); assay: neurokinin receptor binding assay (NK3)
From the text: as §1, §2

Ki (NK1 receptor): 0.5 nM
Ki (NK3 receptor): 0.5 nM
Structure (SMILES): CO/N=C(\CN(C)C(=O)c1cc(Cl)cc(Cl)c1)[C@H](CCN1CCC(N2CCCN(CC(C)(C)O)C2=O)CC1)c1ccc(Cl)c(Cl)c1 [Example 6K]
